These results are taken from patent publication US4563452A, “Derivatives of oxazinobenzothiazine-6,6-dioxide” (Provesan S.A., priority 1982, dated 1986).

A short description of data set [1]: in vivo. The following applies: rat, po, LD-50, rat, v.o. (oral), suspended in 5% gum arabic, 10 ml/kg.
A short description of data set [2]: in vivo. The following applies: mouse, po, LD-50, mouse, v.o. (oral), suspended in 5% gum arabic, 25 ml/kg.

In the case of `CN1c2c(oc(=O)n(-c3ccccn3)c2=O)-c2ccccc2S1(=O)=O` [Example 2, 5-methyl-3-(2-pyridyl)-2H,5H-1,3-oxazino[5,6-c][1,2]benzothiazine-2,4-(3H)dione-6,6-dioxide], the LD50 in data set [1] (female) is 1990 mg/kg; in data set [1] (male) it was 1430 mg/kg; in data set [2] (female) it was 8840 mg/kg; in data set [2] (male), 6190 mg/kg.
